Values of other authors as cited in patent publication US6423677B1, “Cleaner/degreaser concentrate compositions” (Buckeye International, Inc., priority 1995, dated 2002).

Conditions: in water

CCCCOP(=O)(OCCCC)OCCCC
aqueous ambient temperature solubility: 0.6 wt. %
